In test [1] the test system is C. albicans SC5314. The class given is cell-based. As to the method: 1×RPMI-1640 Buffered with Citrate Phosphate Buffer
Citrate phosphate buffer was prepared by mixing 0.1 M citric acid and 0.2 M dibasic sodium phosphate dodecahydrate in the proportions indicated in the Table 2 and the volume adjusted to 90 ml with dH2O.
pH buffered medium was prepared by dissolving 1.04 g RPMI-1640 premix powder in 10 ml citrate phosphate buffer. The volume was then adjusted to 40 ml with dH2O and the pH adjusted by addition of the acid or base. The volume was adjusted to 50 ml with dH2O. The medium was then filter sterilized by vacuum filtration through a 0.2 μm filter and stored at 4° C. and kept for up to 2 weeks.
The pH of RPMI-1640 was altered, using citrate phosphate buffer, to reflect the more acidic pH environment in the oral cavity. NP319 and NP377 were active against C. albicans SC5314 from pH 5.5-7.0 (Table 2). For all AMPs tested the optimum pH for activity was pH 5.5. NP377 maintained activity at 2 μg/ml from pH 5.5-7 with reduced activity at pH 5.

Test [2] concerns C. albicans SC5314. Description: MIC in the presence of 10% sterile filtered human saliva. The class given is cell-based. As to the method:
AMPs of the same sequence length were tested versus C. albicans SC5314 in the presence of 10% (v/v) filtered human saliva at pH 7.0. Positive control is 1×RPMI-1640+cells, no peptide. Data is expressed as percentage of the positive growth controls. Data is the mean±standard error of the mean. (n=3)
Determination of Minimum Inhibitory Concentration (MIC) in Presence of Sterile Filtered Saliva
To test if saliva protease could result in a reduction in AMP antifungal activity against C. albicans, antifungal susceptibility testing was conducted in the presence of 10% (v/v) sterile filtered human saliva.

For test [3], the system named is C. albicans SC5314. Conditions: neutral pH.
Setting [4] is: 10% (v/v) sterile filtered human saliva, pH 7.0.

Converted amounts (≈) assume the structure as drawn. Read-outs that look alike come from different tables or passages of the source.

`N=C(N)NCCC[C@H](NC(=O)[C@H](CCCNC(=N)N)NC(=O)[C@H](CCCNC(=N)N)NC(=O)[C@H](CCCNC(=N)N)NC(=O)[C@H](CCCNC(=N)N)NC(=O)[C@H](CCCNC(=N)N)NC(=O)[C@H](CCCNC(=N)N)NC(=O)[C@H](CCCNC(=N)N)NC(=O)[C@H](CCCNC(=N)N)NC(=O)[C@H](CCCNC(=N)N)NC(=O)[C@H](CCCNC(=N)N)NC(=O)[C@H](CCCNC(=N)N)NC(=O)[C@H](CCCNC(=N)N)NC(=O)[C@H](CCCNC(=N)N)NC(=O)[C@@H](N)CCCNC(=N)N)C(=O)O` [NP319]: the MIC50 (usually the lowest concentration that inhibits either 50% of growth or 50% of the strains tested, depending on the study) in test [1] (SC5314, pH 4.5) came out at 64 µg/mL (≈ 27.1 µM); in test [1] (SC5314, pH 5) it was 8 µg/mL (≈ 3.39 µM); in test [1] (SC5314, pH 5.5) it was 2 µg/mL (≈ 0.847 µM); in test [1] (SC5314, pH 6), 2 µg/mL (≈ 0.847 µM); in test [1] (SC5314, pH 6.5), 2 µg/mL (≈ 0.847 µM); in test [1] (SC5314, pH 7), 4 µg/mL (≈ 1.69 µM). Moreover, the MIC50 in test [2] (setting [4]) was 8 to 16 µg/mL. For the same compound, the MIC100 is more than 64 µg/mL in test [1] (pH 4.5); 32 µg/mL (≈ 13.6 µM) in test [1] (pH 5); 4 µg/mL (≈ 1.69 µM) in test [1] (pH 5.5); 4 µg/mL (≈ 1.69 µM) in test [1] (pH 6); 2 µg/mL (≈ 0.847 µM) in test [1] (pH 6.5); 8 µg/mL (≈ 3.39 µM) in test [1] (pH 7). Moreover, the MIC100 came out at 32 µg/mL in test [2] (setting [4]) and 32 µg/mL (≈ 13.6 µM) in test [3] (no saliva, 24 h incubation at 37° C.). For the same compound, the “antifungal activity in the presence of filtered human saliva” value in test [2] (filtered human saliva) is on record as “retain antifungal activity”.
Turning to `N[C@H](Cc1c[nH]cn1)C(=O)N[C@H](Cc1c[nH]cn1)C(=O)N[C@H](Cc1c[nH]cn1)C(=O)N[C@H](Cc1c[nH]cn1)C(=O)N[C@H](Cc1c[nH]cn1)C(=O)N[C@H](Cc1c[nH]cn1)C(=O)N[C@H](Cc1c[nH]cn1)C(=O)N[C@H](Cc1c[nH]cn1)C(=O)N[C@H](Cc1c[nH]cn1)C(=O)N[C@H](Cc1c[nH]cn1)C(=O)N[C@H](Cc1c[nH]cn1)C(=O)N[C@H](Cc1c[nH]cn1)C(=O)N[C@H](Cc1c[nH]cn1)C(=O)N[C@H](Cc1c[nH]cn1)C(=O)N[C@H](Cc1c[nH]cn1)C(=O)O` [NP365, dHdHdHdHdHdHdHdHdHdHdHdHdHdHdH], the “pH range with activity against C. albicans SC5314” value in test [1] is recorded as 5.5-6.0. Also, the MIC50 in test [1] (SC5314, pH 4.5) is more than 64 µg/mL; in test [1] (SC5314, pH 5), 64 µg/mL (≈ 30.8 µM); in test [1] (SC5314, pH 5.5) it was 8 µg/mL (≈ 3.86 µM); in test [1] (SC5314, pH 6) it was 32 µg/mL (≈ 15.4 µM); in test [1] (SC5314, pH 6.5), 32 µg/mL (≈ 15.4 µM); in test [1] (SC5314, pH 7) it was more than 64 µg/mL. For the same compound, in test [2] (setting [4]), the MIC50 entry is given as “failed to demonstrate a MIC50”. Also, the MIC100 in test [1] (pH 4.5) was more than 64 µg/mL; in test [1] (pH 5) it was more than 64 µg/mL; in test [1] (pH 5.5), 64 µg/mL (≈ 30.8 µM); in test [1] (pH 6) it was more than 64 µg/mL; in test [1] (pH 6.5) it was more than 64 µg/mL; in test [1] (pH 7), more than 64 µg/mL. In addition, the “nature of growth inhibition by MFC testing” value in test [1] (pH 5.5-6.0) was “fungistatic and not fungicidal”. In addition, the “inhibition of C. albicans SC5314 growth” value in test [3] is listed as “did not inhibit”.

These data come from US20170107254A1, “Modified Antimicrobial Peptides” (priority 2014, published 2017).
